Antibody variant affinities, Ab-14 heavy chain, assay 1

Target peptide (SARS-CoV-2 spike, HR2 region): PDVDLGDISGINAS

Each scFv is VH, three GGGGS repeats, VL, as in the parent Ab-14, and differs from it in the CDRs of the heavy chain only.
VH: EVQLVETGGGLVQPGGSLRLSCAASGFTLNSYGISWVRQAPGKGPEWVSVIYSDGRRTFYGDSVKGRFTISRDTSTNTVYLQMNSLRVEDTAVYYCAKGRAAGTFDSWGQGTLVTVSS
VL: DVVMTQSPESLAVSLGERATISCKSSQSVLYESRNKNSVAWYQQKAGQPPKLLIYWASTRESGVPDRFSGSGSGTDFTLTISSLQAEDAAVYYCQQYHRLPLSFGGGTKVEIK

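The parent was found by panning a naive human phage display library on the peptide. In library AAYL49, one, two or three CDR residues were substituted; doubles and triples were drawn at random. The scFvs were displayed on barcoded MATa yeast, the peptide on MATalpha yeast. Binding brings cells together so that they mate, and sequencing counts the barcode pairs among the diploids. Each replicate has its own calibration line, from reference interactions of the BCL2 family. There are three technical replicates.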

Variants are written as CDR1, CDR2 and CDR3 of the heavy chain (limits as in the source). Parent: GFTLNSYGIS, VIYSDGRRTFYGDSVK, GRAAGTFDS. Values are log10 of the apparent Kd in nM; lower means stronger binding. "n.d." means that the variant was in the library but no mating with the target was seen in that replicate; the authors take this as a sign of poor binding, and no number exists. Parent in this assay: reference entry 0.65, copy in this library 4.11 (one replicate of three). As a blank, each scFv also met three strains without target: over library AAYL49, 15% of these pairings were detected, typically at 4.06 and seldom below 2.83. The control count says in how many pairings with the empty strains this scFv gave a signal, with their mean in brackets.

CDR-H1,CDR-H2,CDR-H3,"log10 Kd, replicates",empty controls
GFTLNSYGPS,VIYSDGRRTFYGGSVS,GRAAGTFDS,n.d. n.d. n.d.,0/9
WFTLNSYGIS,VIYSSGRRNFYGDSVK,GRAAGTFDS,n.d. n.d. n.d.,1/9 (2.82)
GCCLNSYGIS,VIYSDGRRTFYGDSVK,GRAAGTIDS,n.d. n.d. 3.81,2/9 (3.57)
GSPLNSYGIS,VIYSDGRRTFYGDSVK,GRAAGTFDK,n.d. n.d. n.d.,1/9 (2.87)
GFTLNSYGIS,VIYSDGRRTDYGDSVK,GRAIGTFDS,n.d. 3.50 n.d.,1/9 (3.60)
GFTLNSYGIS,VIYNDGNRTFYGDSVK,GRAGGTFDS,4.11 3.26 n.d.,1/9 (4.87)
GFRLNSYGIS,VIYSDGRRTFYGDSVK,GRAVGTGDS,n.d. 3.13 n.d.,0/9
GMTLNSYGIR,VIYSDGRRTFYGDSVK,GRAAHTFDS,n.d. n.d. 5.38,2/9 (3.43)
GFTLNSYGIS,VIPSDGIRTFYLDSVK,GRAAGTFDS,n.d. 3.74 n.d.,2/9 (3.71)
GFTLNSYGIS,VIYSDGIRHTYGDSVK,GRAAGTFDS,3.07 2.27 2.55,1/9 (4.75)
GFTLNQYGIS,VIYYDGRRTFYGDSVK,GRAAYTFDS,n.d. n.d. n.d.,0/9
GFTLNSYGIS,VIYSDGRRTFYYGSVK,GRAAGSFDS,n.d. 3.77 6.12,4/9 (4.73)
GFTLNKYGIS,VIYSDGRRQFYGYSVK,GRAAGTFDS,n.d. n.d. n.d.,0/9
GFTQNSGGIS,VIYSDGRRTFYGDSKK,GRAAGTFDS,5.62 n.d. n.d.,2/9 (4.46)
EFTRNSYGIS,VIYSDGRRSFYGDSVK,GRAAGTFDS,n.d. n.d. n.d.,0/9
GFTLNSYGIS,SIYSDGRRTFYGDSVK,GRAKGTFDP,n.d. n.d. n.d.,0/9
GFTLNSYGIH,VIPSDERRTFYGDSVK,GRAAGTFDS,n.d. 3.78 n.d.,4/9 (4.26)
GFTLMSYGIS,RIYSDGRRTFYGPSVK,GRAAGTFDS,n.d. n.d. n.d.,3/9 (2.23)
GFTLNSYGIS,HWYSDGRRTFYGDSVK,GRAAGTWDS,n.d. n.d. n.d.,3/9 (3.28)
IFTLNSYGIS,VIVSDGTRTFYGDSVK,GRAAGTFDS,n.d. n.d. n.d.,2/9 (4.00)
GFTLNSYGIS,VIYSGGRRTFYGDSVK,GRANGTFDS,4.60 4.62 n.d.,2/9 (2.95)
GFTLNSYGKS,VISSDGRRTFYGDSVK,GRAACTFDS,4.87 2.79 n.d.,3/9 (4.78)
GFDLNSYGIS,VIYGDGRMTFYGDSVK,GRAAGTFDS,3.93 2.97 n.d.,2/9 (3.60)
GFTLNSYGIS,VIYSDGRRTFFGDIVK,GRAAGTKDS,n.d. n.d. n.d.,0/9
GFTLNSYCIS,VIYSDGRRTFNGDSVD,GRAAGTFDS,n.d. n.d. n.d.,1/9 (2.73)
GFTLNSYGIS,VIYSDHRSTFYGDSVK,GRAIGTFDS,n.d. n.d. 2.52,0/9
GFTLNSYGIY,VIYSDGRITFYGDSVK,GKAAGTFDS,n.d. n.d. n.d.,3/9 (3.90)
GFTLWSYGIS,VIYSDGRRHFYGDSVK,GYAAGTFDS,n.d. 2.87 n.d.,0/9
GFLLFSYGIS,VIYSDGRRTFYGDSVK,GRAAGTWDS,4.60 3.97 3.88,3/9 (3.77)
GFTLNSYGIS,VIYSDGRRTFRGDSKK,GRSAGTFDS,n.d. 3.51 n.d.,3/9 (3.83)
GFTLNSYGIS,RAYSDGRRTCYGDSVK,GRAAGTFDS,n.d. n.d. n.d.,0/9
GSTLNSYGIS,VIYSDGRRTFYGDEVQ,GRAAGTFDS,2.11 2.17 2.39,4/9 (4.40)
GLTLNSYGIS,VIYSDGRRTFYSDSVK,GRAKGTFDS,n.d. n.d. n.d.,1/9 (2.98)
GFLLNSYGIS,VIYSDGRRTDYGDSVK,GRAAGTTDS,3.03 2.36 3.14,4/9 (4.26)
GFTLNSYGIS,VIYSDGRRTFYGDSIK,GRAAGTFSY,n.d. n.d. n.d.,0/9
GFTLNSYGIS,VIYSDGRMKFYGDSRK,GRAAGTFDS,n.d. n.d. n.d.,1/9 (2.60)
EFTLNSYGIS,VIYSDGRRTFYGASVK,GRAAGTFDG,n.d. n.d. n.d.,0/9
EFTLNSYGIS,VIYSDGRRTFYGDSVK,GDAAGTFDV,2.11 1.82 2.11,0/9
GSTLNSYGIS,VIYSDGRRKFYGDSVK,GRKAGTFDS,n.d. n.d. n.d.,1/9 (2.90)
GFTLNSYGIS,VIYSDGRKTFYCDSVK,ARAAGTFDS,n.d. n.d. n.d.,2/9 (4.40)
GFTLNSYGIS,VIYSDGRRYFYSDSVK,GRAAGTFAS,4.35 4.74 n.d.,9/9 (4.85)
GFTLNSYGGS,VIYSHGRRTFYGDSVK,GRANGTFDS,3.94 5.12 n.d.,4/9 (3.73)
GFTLNHYGIS,VIYSDGRRTFYGDYVK,GRAAGTFDS,3.81 n.d. 3.48,2/9 (5.00)
GFTLNSYGIS,VIVSDGRWTFYGDSVK,NRAAGTFDS,n.d. n.d. n.d.,0/9
GFTLNFKGIS,VIYSDGRRTFYGDSVK,GRAAGTIDS,n.d. 3.40 n.d.,3/9 (3.96)
GFTLNGYGIS,EIYSDGRRTHYGDSVK,GRAAGTFDS,3.95 3.73 3.92,3/9 (4.27)
GFTLNSYGIE,VPYSDGRRTFYGLSVK,GRAAGTFDS,n.d. n.d. n.d.,0/9

The first 6 entries again:

{"CDR-H1": "GFTLNSYGPS", "CDR-H2": "VIYSDGRRTFYGGSVS", "CDR-H3": "GRAAGTFDS", "log10 Kd, replicates": "n.d. n.d. n.d.", "empty controls": "0/9"}
{"CDR-H1": "WFTLNSYGIS", "CDR-H2": "VIYSSGRRNFYGDSVK", "CDR-H3": "GRAAGTFDS", "log10 Kd, replicates": "n.d. n.d. n.d.", "empty controls": "1/9 (2.82)"}
{"CDR-H1": "GCCLNSYGIS", "CDR-H2": "VIYSDGRRTFYGDSVK", "CDR-H3": "GRAAGTIDS", "log10 Kd, replicates": "n.d. n.d. 3.81", "empty controls": "2/9 (3.57)"}
{"CDR-H1": "GSPLNSYGIS", "CDR-H2": "VIYSDGRRTFYGDSVK", "CDR-H3": "GRAAGTFDK", "log10 Kd, replicates": "n.d. n.d. n.d.", "empty controls": "1/9 (2.87)"}
{"CDR-H1": "GFTLNSYGIS", "CDR-H2": "VIYSDGRRTDYGDSVK", "CDR-H3": "GRAIGTFDS", "log10 Kd, replicates": "n.d. 3.50 n.d.", "empty controls": "1/9 (3.60)"}
{"CDR-H1": "GFTLNSYGIS", "CDR-H2": "VIYNDGNRTFYGDSVK", "CDR-H3": "GRAGGTFDS", "log10 Kd, replicates": "4.11 3.26 n.d.", "empty controls": "1/9 (4.87)"}

From the AlphaSeq antibody data of Engelhart et al. 2022 (doi:10.1038/s41597-022-01779-4), copy in the FLAb collection.